Among the data in patent publication US20240239905A1 are Kd values, retold here.

For orientation: Kd means a measure of binding affinity in units of concentration.

For the assay, the target named is Recombinant human FcγRIIIa (CD16A) ectodomain (human) (UniProt P08637). In words: SPR. Background: SPR reads the build-up and loss of mass on a sensor chip optically.

Consider “cetuximab (CHO cell expressed anti-EGFR)”, for which the Kd came out at 218 nM.
